{"source": "patent US12202815B2", "about": "(dated 2025)", "key": {"full length AR": {"system": "full length AR", "test": "LNCaP or AD1 degradation (AR FL), Western blot", "format": "cell-based"}, "AR": {"molecular_target": "T1, AR (Rattus norvegicus, UniProt P15207)", "T1 sequence (P15207 1-902)": "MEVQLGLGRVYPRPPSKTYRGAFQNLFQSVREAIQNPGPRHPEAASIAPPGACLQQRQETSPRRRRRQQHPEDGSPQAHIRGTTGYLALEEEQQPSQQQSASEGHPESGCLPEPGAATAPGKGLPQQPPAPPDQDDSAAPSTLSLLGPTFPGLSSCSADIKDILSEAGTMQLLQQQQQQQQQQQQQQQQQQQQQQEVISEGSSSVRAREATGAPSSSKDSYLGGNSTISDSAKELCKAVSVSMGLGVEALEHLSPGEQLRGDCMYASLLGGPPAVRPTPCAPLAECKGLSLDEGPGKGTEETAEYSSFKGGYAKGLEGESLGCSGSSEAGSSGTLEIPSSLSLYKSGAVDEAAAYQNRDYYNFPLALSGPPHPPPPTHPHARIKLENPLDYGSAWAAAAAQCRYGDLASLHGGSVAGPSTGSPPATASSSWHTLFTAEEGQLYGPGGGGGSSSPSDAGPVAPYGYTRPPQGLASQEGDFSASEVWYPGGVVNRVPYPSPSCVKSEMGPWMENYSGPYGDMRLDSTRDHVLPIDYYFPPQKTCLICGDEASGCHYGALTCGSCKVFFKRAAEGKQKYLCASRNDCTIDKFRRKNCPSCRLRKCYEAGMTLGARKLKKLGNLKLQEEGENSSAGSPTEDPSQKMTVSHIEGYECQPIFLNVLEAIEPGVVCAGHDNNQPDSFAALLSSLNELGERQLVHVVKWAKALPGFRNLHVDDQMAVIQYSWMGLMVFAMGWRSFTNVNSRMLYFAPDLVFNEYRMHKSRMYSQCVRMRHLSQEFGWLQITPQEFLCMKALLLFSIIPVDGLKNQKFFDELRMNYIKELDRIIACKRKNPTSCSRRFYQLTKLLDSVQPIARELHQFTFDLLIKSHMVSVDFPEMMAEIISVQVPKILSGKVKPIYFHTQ", "conditions": "20 mg/kg"}}, "note": "Read-outs that look alike come from different tables or passages of the source.", "data": [{"compound": "C[C@](O)(Cn1cc(F)cn1)C(=O)Nc1ccc(C#N)c(C(F)(F)F)c1", "values": [{"measurement": "Serum Conc.", "setting": "Table 3, 20 mg/kg Hershberger", "result": 33, "unit": "nM"}]}, {"compound": "C[C@](O)(Cn1ccc2cc(F)ccc21)C(=O)Nc1cnc(C#N)c(C(F)(F)F)c1", "note": "[Compound 47, (S)—N-(6-Cyano-5-(trifluoromethyl)pyridin-3-yl)-3-(5-fluoro-1H-indol-1-yl)-2-hydroxy-2-methylpropanamide]", "values": [{"measurement": "SARD Activity Full Length % inhibition at 1 μM", "setting": "full length AR; first value of the pair, 1 μM", "result": 57, "unit": "%"}, {"measurement": "SARD Activity Full Length % inhibition at 10 μM", "setting": "full length AR; second value of the pair, 10 μM", "result": 97, "unit": "%"}]}, {"compound": "C[C@](O)(Cn1cc(Cl)cn1)C(=O)Nc1ccc(C#N)c(C(F)(F)F)c1", "note": "[Compound 1049]", "values": [{"measurement": "(Prostate) % diff", "setting": "AR; prostate weight vs intact vehicle treated rats", "result": "−20", "unit": "%"}, {"measurement": "(S.V.) % diff", "setting": "AR; seminal vesicles weight vs intact vehicle treated rats", "result": "−65", "unit": "%"}]}, {"compound": "C[C@](O)(Cn1cc(Br)c(F)n1)C(=O)Nc1ccc(C#N)c(C(F)(F)F)c1", "note": "[Compound 1058]", "values": [{"measurement": "Serum Conc.", "setting": "Table 2, rats 20 mg/kg, 24-30 hours after last dose", "result": 404, "unit": "nM"}, {"measurement": "Serum Conc.", "setting": "Table 3, 20 mg/kg Hershberger", "result": 404, "unit": "nM"}]}, {"compound": "C[C@](O)(Cn1cc(Cl)c(Br)n1)C(=O)Nc1ccc(C#N)c(C(F)(F)F)c1", "note": "[Compound 1066, (S)-3-(3-Bromo-4-chloro-1H-pyrazol-1-yl)-N-(4-cyano-3-(trifluoromethyl)phenyl)-2-hydroxy-2-methylpropanamide]", "values": [{"measurement": "Serum Conc.", "setting": "Table 3, 20 mg/kg Hershberger", "result": 19, "unit": "nM"}]}, {"compound": "ARN-509 [reference compound]", "values": [{"measurement": "SARD Activity Full Length % inhibition at 1, 10 μM", "setting": "full length AR; single value given, concentration not specified", "result": 0, "unit": "%"}, {"measurement": "SARD Activity S.V. % inhibition at 10 μM", "setting": "AR splice variants", "result": 0, "unit": "%"}]}]}
